What was measured:
[1] = free base or acid addition salt; cited from earlier work
[2] = system: enzyme cholinesterase in the blood; test: Preliminary test: blood cholinesterase inhibition after oral capsule in piglets; settings: piglets 12 kg, 6 mg orally as capsule, two hours after administration
[3] = in vivo; cited from earlier work
[4] = approved medicament for Alzheimer's disease; cited from earlier work

SMILES | ability to penetrate the skin [1] | inhibition of the enzyme cholinesterase in the blood [2] | absorption from the gastrointestinal tract [3] | crossing of the blood-brain barrier [3] | side effects [4]
CN1[C@@H]2C[C@@H](OC(=O)[C@H](CO)c3ccccc3)C[C@H]1[C@@H]1O[C@@H]12 | able to penetrate the skin | – | – | – | –
CCN(C)C(=O)Oc1cccc([C@H](C)N(C)C)c1 | able to penetrate the skin | 20-40% | absorbed well | easily crosses the blood-brain barrier | no serious side effects are known
